# Laboratory results reported in ChEMBL document CHEMBL4420071, “Method for treating skin with retinoids and retinoid boosters” (2013).
# Target: T1, Lecithin retinol acyltransferase (Bos taurus) (UniProt Q9BGL2)
# T1 sequence (whole entry): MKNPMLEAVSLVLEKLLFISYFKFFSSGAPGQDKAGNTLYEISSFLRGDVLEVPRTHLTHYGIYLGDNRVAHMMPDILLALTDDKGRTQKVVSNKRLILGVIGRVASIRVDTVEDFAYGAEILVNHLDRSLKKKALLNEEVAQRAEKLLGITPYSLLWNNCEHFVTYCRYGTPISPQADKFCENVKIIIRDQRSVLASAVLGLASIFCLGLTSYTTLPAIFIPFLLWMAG
# Test: Inhibition of LRAT in bovine RPE microsomes at 10 uM using retinol substrate in presence of Palmitoyl-CoA incubated for 5 mins by HPLC analysis relative to control
# Details: not given
row,inhibition [%],SMILES
1,12,CCCCCCCCCCCCCCCC(=O)NCCO

# Target: T1, Lecithin retinol acyltransferase (Bos taurus)
# Details: at 100 µM
row,inhibition [%],SMILES
1,28,C[C@H]1[C@H](C)CC[C@]2(C(=O)O)CC[C@]3(C)C(=CC[C@@H]4[C@@]5(C)CC[C@H](O)C(C)(C)[C@@H]5CC[C@]43C)[C@H]12
2,71,CC(C)(O)CCCC1=CCC(C=O)CC1 (stereo unspecified)
3,33,CCCCCCCCCCCCCCCC(=O)NCCO
4,0,CC(C)=CCCC(C)CCO (stereo unspecified)
5,25,CC1=CCC(C(C)(C)O)CC1 (stereo unspecified)
